Measurements from BindingDB's records for doi:10.1016/s0014-2999(98)00104-6 (Uppsala University, 1998).

By UniProt entry, the sequences of proteins in these tests, tags left out.
UniProt Q70HQ0, whole entry: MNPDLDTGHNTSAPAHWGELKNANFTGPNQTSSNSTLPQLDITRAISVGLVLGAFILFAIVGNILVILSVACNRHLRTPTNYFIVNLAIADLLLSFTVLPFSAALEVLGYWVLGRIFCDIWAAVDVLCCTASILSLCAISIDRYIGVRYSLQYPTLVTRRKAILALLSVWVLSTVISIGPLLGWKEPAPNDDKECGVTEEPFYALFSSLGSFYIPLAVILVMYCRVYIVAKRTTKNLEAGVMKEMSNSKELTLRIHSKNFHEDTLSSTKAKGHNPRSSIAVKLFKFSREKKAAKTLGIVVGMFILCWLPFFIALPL

Target: Alpha-1B adrenergic receptor (Sus scrofa, UniProt Q70HQ0)

Structure (SMILES) | Ki
COC(=O)C1C(C)=NC(C)=C(C(=O)OCCCN2CCC(c3ccccc3)(c3ccccc3)CC2)C1c1cccc([N+](=O)[O-])c1 (configuration not stated) [CAS_1236] | 316 nM
Cc1cc(C(C)(C)C)c(O)c(C)c1CC1=NCCN1 [SMR000059324] | 158 nM
